# Test results taken from patent publication US11505560B2, “Heterobifunctional compounds with improved specificity” (DANA-FARBER CANCER INSTITUTE, INC., priority 2017, dated 2022).
# Sequences of proteins named here, by UniProt entry; tags and fusion partners are left off. A change or cut given only in a name is not applied to a line headed by its entry. A line that says so, or that is headed by a name, gives the form on record, which may keep a tag or linker.
# UniProt Q13422, with tags, fused parts or gaps DEL197-239 limits assumed: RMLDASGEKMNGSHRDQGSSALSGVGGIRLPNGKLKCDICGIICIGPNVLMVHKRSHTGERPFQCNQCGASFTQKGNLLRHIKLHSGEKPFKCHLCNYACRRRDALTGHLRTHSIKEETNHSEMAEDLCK
# UniProt Q96SW2, whole entry, stated change not applied: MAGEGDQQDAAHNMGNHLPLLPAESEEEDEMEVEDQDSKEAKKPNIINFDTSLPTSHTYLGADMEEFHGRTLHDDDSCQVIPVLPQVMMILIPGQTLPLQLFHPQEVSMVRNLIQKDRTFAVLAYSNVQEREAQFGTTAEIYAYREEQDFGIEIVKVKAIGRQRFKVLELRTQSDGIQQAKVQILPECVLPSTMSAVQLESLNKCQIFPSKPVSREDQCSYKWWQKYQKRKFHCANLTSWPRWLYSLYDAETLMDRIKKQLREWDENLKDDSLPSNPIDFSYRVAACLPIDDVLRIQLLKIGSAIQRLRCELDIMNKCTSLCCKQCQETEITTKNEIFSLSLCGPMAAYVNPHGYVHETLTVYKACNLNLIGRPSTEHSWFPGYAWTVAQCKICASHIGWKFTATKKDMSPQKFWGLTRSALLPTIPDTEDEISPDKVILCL
# Legend:
# [1] = molecular target: IKZF1Δ-EGFP fusion protein (Homo sapiens, UniProt Q13422+Q96SW2, DEL197-239); assay: IKZF1Δ-EGFP fusion protein degradation reporter assay (flow cytometry); settings: HEK293T cells
# [2] = molecular target: T1, IKZF1Δ-CRBN complex formation (Homo sapiens, UniProt Q13422+Q96SW2, DEL197-239); assay: CRBN-IKZF1Δ binding assay (TR-FRET); settings: IKZF1Δ and DDB1ΔB-CRBN
# T1 construct: made in house; host or cells: Trichoplusia ni High-Five insect cells (baculovirus)
smiles,measurement,setting,value
"Cc1sc2c(c1C)C(c1ccc(Cl)cc1)=N[C@@H](CC(=O)NCCCCCCCCNC(=O)COc1cccc3c1C(=O)N(C1CCC(=O)NC1=O)C3=O)c1nnc(C)n1-2 (some centres unmarked) [dBET6, reference compound]",cellular IKZF1 degradation (in words),[1],relatively ineffective at promoting IKZF1 degradation
same,induction of IKZF1-CRBN complex formation / IKZF1 binding (in words),[2],do not induce IKZF1-CRBN complex formation
